Measurements published in BindingDB's records for 24630558.

By UniProt entry, the sequences of proteins in these tests, tags left out. Residues count along the entry.
UniProt P22303, 32-614 limits assumed: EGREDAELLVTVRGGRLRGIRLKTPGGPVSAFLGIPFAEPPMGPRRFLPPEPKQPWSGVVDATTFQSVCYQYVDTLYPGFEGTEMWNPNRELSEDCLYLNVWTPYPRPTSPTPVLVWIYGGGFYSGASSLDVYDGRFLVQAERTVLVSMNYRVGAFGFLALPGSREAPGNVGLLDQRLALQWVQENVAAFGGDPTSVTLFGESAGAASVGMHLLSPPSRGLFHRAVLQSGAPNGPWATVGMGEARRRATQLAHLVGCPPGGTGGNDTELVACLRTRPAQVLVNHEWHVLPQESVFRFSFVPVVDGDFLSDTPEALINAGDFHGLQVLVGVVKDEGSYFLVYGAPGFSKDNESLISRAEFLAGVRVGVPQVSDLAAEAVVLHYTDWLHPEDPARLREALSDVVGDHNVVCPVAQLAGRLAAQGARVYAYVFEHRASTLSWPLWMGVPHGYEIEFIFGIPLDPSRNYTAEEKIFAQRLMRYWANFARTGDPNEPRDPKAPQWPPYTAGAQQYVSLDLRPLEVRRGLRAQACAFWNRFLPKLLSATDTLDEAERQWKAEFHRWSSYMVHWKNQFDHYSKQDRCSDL

biological target: Acetylcholinesterase (Homo sapiens, UniProt P22303); assay: Inhibition of human AChE using acetylthiocholine as substrate after 4 hrs by robotic spectrophotometric assay

| SMILES | Ki [µM] |
| --- | --- |
| COc1cc2c(cc1OC)C(c1ccccc1)N(CCCNC(=O)/C(=N/O)C(C)=O)CC2 (centres undefined) | 1930 |
| O=C(/C=N/O)NCC1CCN(Cc2ccccc2)CC1 | 3180 |
| O=C(/C=N/O)c1ccc(OCC2CCN(Cc3ccc(F)c(F)c3)CC2)nc1 | 159 |
| CC(=O)/C(=N\O)C(=O)NC1CCN(Cc2ccccc2)CC1 | 234 |
| O=C(/C=N/O)NC1CCN(Cc2ccccc2)CC1 | 2430 |
| CC(=O)/C(=N\O)C(=O)NCC1CCN(Cc2ccccc2)CC1 | 2300 |
| COc1ccc(CN2CCC(COc3ccc(C(=O)/C=N/O)cn3)CC2)cc1OC | 1930 |
| N#C/C(=N\O)C(=O)NC1CCN(Cc2ccccc2)CC1 | 732 |
| O=C(/C=N/O)c1ccc(NCC2CCN(Cc3ccccc3)CC2)nc1 | 286 |
| COc1cc2c(cc1OC)CN(CCCNC(=O)/C(=N/O)C(C)=O)CC2 | 2670 |
| COc1ccc(CN2CCC(COc3ccc(C(=O)/C=N/O)cn3)C2)cc1OC (centres undefined) | 2520 |
| O=C(/C=N/O)c1ccc(OCC2CCN(Cc3ccccc3)C2)nc1 (centres undefined) | 137 |
| O=C(/C=N/O)c1ccc(OCC2CCCCN2Cc2ccccc2)nc1 (centres undefined) | 551 |
| COc1cc2c(cc1OC)C(c1ccccc1)N(CCCNC(=O)/C=N/O)CC2 (centres undefined) | 595 |
| COc1ccc(CN2CCC(CNC(=O)/C(=N/O)C(C)=O)CC2)cc1OC | 1620 |
| O=C(/C=N/O)c1ccnc(OCC2CCN(Cc3ccccc3)CC2)c1 | 144 |
| O=C(/C=N/O)c1cccnc1OCC1CCN(Cc2ccccc2)CC1 | 180 |
| O=C(/C=N/O)c1cccc(OCC2CCN(Cc3ccccc3)CC2)n1 | 199 |
| N#Cc1ccc(CN2CCC(COc3ccc(C(=O)/C=N/O)cn3)CC2)cc1 | 1610 |
| COc1ccc(CN2CCCC(COc3ccc(C(=O)/C=N/O)cn3)C2)cc1OC (centres undefined) | 345 |
| O/N=C/c1ccc(OCC2CCN(Cc3ccccc3)CC2)nc1 | 266 |
| COc1ccc(CN2CCCCC2COc2ccc(C(=O)/C=N/O)cn2)cc1OC (centres undefined) | 233 |
| O=C(/C=N/O)c1ccc(OCC2CCN(Cc3cccc(Cl)c3)CC2)nc1 | 298 |
| O/N=C/c1cnc(OCC2CCN(Cc3ccccc3)CC2)nc1 | 198 |
